# scFv variants of Ab-95 (light chain) against a SARS-CoV-2 spike peptide

Data: MIT Lincoln Laboratory AlphaSeq set, Engelhart et al. 2022, doi:10.1038/s41597-022-01779-4, as distributed in FLAb.

All variants were tested on one target, the spike HR2 peptide PDVDLGDISGINAS (SARS-CoV-2).

The variants keep the heavy chain, the linker and the frameworks of Ab-95 (scFv order VH, a 15-residue (Gly4Ser)3 linker, VL).
VH: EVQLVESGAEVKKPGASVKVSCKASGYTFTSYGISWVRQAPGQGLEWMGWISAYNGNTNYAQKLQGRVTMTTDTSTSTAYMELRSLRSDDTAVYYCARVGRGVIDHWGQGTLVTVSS
VL: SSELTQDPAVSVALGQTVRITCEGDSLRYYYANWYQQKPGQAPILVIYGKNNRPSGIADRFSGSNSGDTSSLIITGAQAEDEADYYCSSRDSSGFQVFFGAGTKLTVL

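The parent was found by panning a naive human phage display library on the peptide. The library (AAYL52) carries one to three amino acid substitutions per variant, with no insertions or deletions. Affinity was read by AlphaSeq, a pooled yeast mating assay with surface-displayed partners. The frequency of each diploid, read from paired DNA barcodes, reflects how well the two displayed proteins bind. Read counts were normalised to the haploid input and turned into Kd by a linear fit to BCL2-family pairs of known affinity, for each replicate. There are three technical replicates.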

Changes read parent residue, position, new residue, counted from the first residue of the VL shown. Values are log10 of the apparent Kd in nM; lower means stronger binding. Replicates are averaged; those with no signal do not enter the mean. Where no diploid with the target was found in any replicate, the entry reads "no signal": below detection, most likely a poor binder, though not proof of it. Entries are sorted by rising average, undetected variants last.

With E23D/Y29G/K50N the result was 1.06 (3 of 3 replicates; controls 4 of 9).
With Y29D/Y30T/A32F the result was 1.86 (3 of 3 replicates; controls 2 of 9).
With N33Q/S88Q/D91S the result was 2.00 (3 of 3 replicates; controls 3 of 9).
With Y31V/S55H/S88E the result was 2.20 (3 of 3 replicates; controls 3 of 9).
With R28Y/G94K the result was 2.42 (3 of 3 replicates; controls 4 of 9).
With Y29P/Y30H/F98P the result was 2.46 (3 of 3 replicates; controls 2 of 9).
With D25A/S93C/G94V the result was 2.54 (3 of 3 replicates; controls 6 of 9).
With P54I/S55E/G94P the result was 2.72 (3 of 3 replicates; controls 3 of 9).
With E23A/L27M/R90W the result was 2.72 (3 of 3 replicates; controls 4 of 9).
With K50L/S92L/F95Y the result was 2.81 (3 of 3 replicates; controls 3 of 9).
With S55D/S89P the result was 2.97 (3 of 3 replicates; controls 2 of 9).
With G24D/R28L/Y30K the result was 3.10 (2 of 3 replicates; controls 3 of 9).
With Y31L/K50Q/S88F the result was 3.19 (3 of 3 replicates; controls 4 of 9).
With G24T/Y31R/S89M the result was 3.19 (3 of 3 replicates; controls 1 of 9).
With G49D/S93Y/F95Q the result was 3.23 (3 of 3 replicates; controls 0 of 9).
With E23R/Y31K/V97F the result was 3.24 (3 of 3 replicates; controls 3 of 9).
With Y29L/R53L/Q96V the result was 3.24 (1 of 3 replicates; controls 5 of 9).
With D25Y/S88Q/S92V the result was 3.32 (2 of 3 replicates; controls 0 of 9).
With E23L/R90H/G94W the result was 3.32 (2 of 3 replicates; controls 2 of 9).
With Y29C/Y30D/S93L the result was 3.36 (2 of 3 replicates; controls 2 of 9).
With D25H/D91N/S92F the result was 3.37 (3 of 3 replicates; controls 2 of 9).
With D25C/S93K the result was 3.37 (3 of 3 replicates; controls 2 of 9).
With N52Q/R53H/S92Y the result was 3.47 (3 of 3 replicates; controls 2 of 9).
With P54F/R90I/S93D the result was 3.61 (3 of 3 replicates; controls 3 of 9).
With E23A/A32W the result was 3.64 (1 of 3 replicates; controls 4 of 9).
With G24I/N52W/R90C the result was 3.93 (3 of 3 replicates; controls 2 of 9).
With E23M/N52E/S88L the result was 4.00 (1 of 3 replicates; controls 3 of 9).
With Y29E/G49Y/F95T the result was 4.03 (1 of 3 replicates; controls 3 of 9).
With A32C/N33K/Q96S the result was 4.13 (1 of 3 replicates; controls 2 of 9).
With G49M/S92W/F95P the result was 4.14 (1 of 3 replicates; controls 1 of 9).
With G49W/N51W the result was 4.17 (2 of 3 replicates; controls 2 of 9).
With S26P/K50V/S92C the result was 4.19 (1 of 3 replicates; controls 2 of 9).
With D25C/A32E/N51K the result was 4.21 (2 of 3 replicates; controls 2 of 9).
With N51R/F95C/V97T the result was 4.23 (3 of 3 replicates; controls 5 of 9).
With L27W/N33F/S93I the result was 4.24 (2 of 3 replicates; controls 4 of 9).
With A32L/S88R/S92R the result was 4.41 (3 of 3 replicates; controls 7 of 9).
With Y29I/F98Y the result was 4.48 (2 of 3 replicates; controls 3 of 9).
With S26I/G94M/F95D the result was 4.49 (2 of 3 replicates; controls 4 of 9).
With N33Q/N51E/S93P the result was 4.55 (3 of 3 replicates; controls 3 of 9).
With P54K/R90D/S93I the result was 4.55 (1 of 3 replicates; controls 1 of 9).
With K50S/R90T/S92D the result was 4.58 (1 of 3 replicates; controls 1 of 9).
With S26K/R28C/G49I the result was 4.64 (2 of 3 replicates; controls 4 of 9).
With R53T/S89Q/Q96I the result was 5.09 (2 of 3 replicates; controls 4 of 9).
With L27P/S88R/Q96M the result was 5.24 (1 of 3 replicates; controls 5 of 9).
With Y29T/N33D/F95W the result was no signal (0 of 3 replicates; controls 2 of 9).
With E23N/A32Y/S92N the result was no signal (0 of 3 replicates; controls 2 of 9).
With G24A/Y30W/R90L the result was no signal (0 of 3 replicates; controls 0 of 9).
With D25L/N51D/V97M the result was no signal (0 of 3 replicates; controls 0 of 9).
With Y31C/N51C/R53M the result was no signal (0 of 3 replicates; controls 3 of 9).

The 8 strongest on average among those seen in every replicate, once more:

For E23D/Y29G/K50N, the assay gave 1.06 (3 of 3 replicates; controls 4 of 9).
For Y29D/Y30T/A32F, the assay gave 1.86 (3 of 3 replicates; controls 2 of 9).
For N33Q/S88Q/D91S, the assay gave 2.00 (3 of 3 replicates; controls 3 of 9).
For Y31V/S55H/S88E, the assay gave 2.20 (3 of 3 replicates; controls 3 of 9).
For R28Y/G94K, the assay gave 2.42 (3 of 3 replicates; controls 4 of 9).
For Y29P/Y30H/F98P, the assay gave 2.46 (3 of 3 replicates; controls 2 of 9).
For D25A/S93C/G94V, the assay gave 2.54 (3 of 3 replicates; controls 6 of 9).
For P54I/S55E/G94P, the assay gave 2.72 (3 of 3 replicates; controls 3 of 9).

In this assay the parent's reference entry averaged 2.31; its copy inside this library read 2.25. Nonspecific signal, from three strains lacking the peptide, appeared in 28% of pairings of library AAYL52, centred on 3.91 (5% of these signals below 2.90); values are not corrected for it. Also given: how often the same scFv was detected with the empty control strains.